These results are taken from patent US12128037B2, “Sulfasalazine salts, production processes and uses” (priority 2017, dated 2024).

A short description of series [1]: Solubility in de-ionized water (HPLC). The note with it: 24° C. after 24 h.
Series [2] is described as follows: Gravimetric vapour sorption (GVS), hygroscopicity. Type of series: physicochemical. To be noted: 25° C. As for the experimental part: With regard to the ability (rate and extent) of water vapour uptake, the European Pharmacopoeia Technical guide 2015, General Chapter 5.11. has categorized pharmaceutical solids into four different classes: i.e. as slightly hygroscopic (equal to or greater than 0.2 but less than 2% w/w uptake at RH 80% and 25° C.), hygroscopic (equal to or greater than 2%, but less than 15% w/w uptake at RH 80% and 25° C.), very hygroscopic (equal to or greater than 15% w/w uptake at RH 80% and 25° C.) and deliquescent (sufficient water is absorbed to form a liquid) according to the extent of water uptake.
Gravimetric vapour sorption (GVS) was used to determine the hygrocopicity of the samples: experiments were performed at 25° C. using a DVS 1 instrument from SMS Ltd to record adsorption-desorption isotherms using different methods, the main features being: a single sorption/desorption cycle from 0 to 80% RH in 10% RH steps with a dm/dt trigger value of 0.002% (dm/dt=change in mass with time—when the balance stability is within this value the next step is automatically started, however, if those conditions are not achieved there is a default maximum time for each step of 6 hours). The sample amount used was 1-3 mg.

As to “Piperazine 2-hydroxy-5-[2-[4-[(2-pyridinylamino)sulfonyl]phenyl]diazenyl]-benzoate [Form A piperazine salt]”, the “solubility in de-ionized water” value in series [1] is 120 µg/mL. Moreover, the “water vapor uptake (GVS)” value in series [2] (30% RH) came to 0.4 % w/w; in series [2] (80% RH), 0.9 % w/w.
